# Only a part is listed here, and it is no random draw. Some results for these compounds are left out of this collection, so the calls shown say nothing about other tests. Active and inactive are the calls of the source.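 Rule for the calls: active = activation above 40% with more than 50 cells counted in the well; inconclusive = wells holding fewer than 50 cells, flagged as toxic or sparse; inactive = the rest.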
# Amino acid sequences for entries named in this document (tags omitted).
# UniProt Q9Y2T6, whole entry: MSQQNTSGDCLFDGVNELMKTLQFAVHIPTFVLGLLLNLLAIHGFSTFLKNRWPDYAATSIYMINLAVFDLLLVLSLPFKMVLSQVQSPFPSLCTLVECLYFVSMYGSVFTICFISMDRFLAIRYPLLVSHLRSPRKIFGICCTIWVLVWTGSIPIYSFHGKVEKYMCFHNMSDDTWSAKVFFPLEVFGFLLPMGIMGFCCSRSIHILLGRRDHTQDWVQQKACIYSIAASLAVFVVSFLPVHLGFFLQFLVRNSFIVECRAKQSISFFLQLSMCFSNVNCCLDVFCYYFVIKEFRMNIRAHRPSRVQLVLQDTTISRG
# Biological target: G-protein coupled receptor 55 (Homo sapiens) (UniProt Q9Y2T6)
# Assay: GPR55 agonists via beta-arrestin recruitment, primary screen, imaging, U2OS cells, beta-arrestin-GFP redistribution (AID 1961);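 note: U2OS osteosarcoma cells stably expressing GPR55 and beta-arrestin-GFP; plate controls were DMSO negative control for no effect and LPI positive control for full effect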
# Settings: at 10 µM, hits give high values
row,SMILES,activation
1,CC(C)N1C(=O)CC2(CCN(CCOC(=O)C(O)(c3ccccc3)c3ccccc3)CC2)C1=O,inactive: 0%
2,CCN(CC)CC(C)C(C)OC(=O)C(O)(c1ccccc1)c1ccccc1 (centres undefined),inactive: 0.4%
3,COc1cc(SC)ccc1C(=O)NCC1(N(C)C)CCCCC1,inactive: 0%
4,Cc1ccc(C(=O)NCC2(N3CCCCC3)CCCCC2)cc1,inactive: -0.2%
5,O=C(NCC1(N2CCCCC2)CCCCC1)c1cc([N+](=O)[O-])ccc1Cl,inactive: 0.4%
6,CN1[C@@H]2CC[C@H]1CC(OC(=O)C(O)(c1ccccc1)c1ccccc1)C2 (some centres undefined),inactive: -0.1%
7,C=CCN1CCN(CCOC(=O)C(O)(c2ccccc2)c2ccccc2)CC1,inactive: 0%
8,O=C(NCC1(N2CCCCC2)CCCCC1)c1cc(F)c(F)cc1Cl,inactive: -0.2%
9,CCN1CCCC(OC(=O)C2(O)c3ccccc3C=Cc3ccccc32)C1 (centres undefined),inactive: -0.3%
10,Cc1cc(C(=O)NCC2(N3CCCCC3)CCCCC2)ccc1[N+](=O)[O-],inactive: -0.1%
11,O=C(NCC1(N2CCCCC2)CCCCC1)c1cccc(Br)c1,inactive: 0.3%
12,COc1ccc(C(=O)NCC2(N(C)C)CCCCC2)cc1,inactive: -0.1%
13,Cc1ccccc1C(=O)NCC1(N2CCCCC2)CCCCC1,inactive: 0.7%
14,CN(C)c1ccc(C(=O)NCC2(N(C)C)CCCCC2)cc1,inactive: 0%
15,CN(C)C1CCCC1OC(=O)C(O)(c1ccccc1)c1ccccc1 (centres undefined),inactive: -0.1%
16,COc1cccc(C(=O)NCC2(N3CCCCC3)CCCCC2)c1,inactive: -0.7%
17,COc1ccc(Cl)cc1C(=O)NCC1(N(C)C)CCCCC1,inactive: 0.4%
18,O=C(NCC1(N2CCCCC2)CCCCC1)c1cccc(Cl)c1,inactive: 0.5%
19,CN(C)C1(CNC(=O)c2ccc(Br)cc2)CCCCC1,inactive: -0.3%
20,COc1cc(C(=O)NCC2(N(C)C)CCCCC2)c([N+](=O)[O-])cc1OC,inactive: -0.1%
21,COc1ccc(Br)c(C(=O)NCC2(N3CCCCC3)CCCCC2)c1,inactive: -0.3%
22,CN(C)c1cccc(C(=O)NCC2(N(C)C)CCCCC2)c1,inactive: -0.3%
23,CC(C)Oc1ccc(C(=O)NCC2(N(C)C)CCCCC2)cc1,inactive: -0.1%
24,O=C(OC1CN2CCC1CC2)C(CO)(c1ccccc1)c1ccccc1 (centres undefined),inactive: -0.2%

# Reference: PubChem BioAssay AID1961 (Sanford-Burnham Center for Chemical Genomics, 2009)
